# Test results published in patent US4826975A, “Fused cycloaliphatic aminoalcohols” (Maggioni-Winthrop S.P.A., priority 1986, dated 1989).
# System: phenylephrine (PHE) induced hypertension
# Assay: antagonism against phenylephrine (PHE) induced hypertension in anesthetized rats
# Type: in vivo, rat
# Settings: 1 mg/kg i.v.
smiles,measurement,value
"COc1cc2c(c(OC)c1OC)C[C@@H](N1CCC(n3c(=O)[nH]c4ccccc43)CC1)[C@H]2O (relative stereo) [MG 38007, cis 2-[4-(2-Oxo-2-benzimidazolinyl)-1-piperidinyl]-4,5,6-trimethoxy-1-indanol]","PHE dosis causing a 50 mm Hg increase of the arterial pressure, in comparison with the controls",about 9 times
